# Test results taken from patent US11759461B2, “Small molecule inhibitors of cancer stem cells and mesenchymal cancer types” (The Scripps Research Institute, priority 2017, dated 2023).
# System: FOXC2-expressing HMLER cells
# Experiment: Cell Titer Glo viability of FOXC2-HMLER cells (high throughput screen and 10-point response)
# Type: cell-based, human
# Conditions: FOXC2-HMLER vs control HMLER
# Description: For high throughput screening, FOXC2-HMLER and HMLER cells were plated at 10^3 cells per well in white 384-well plates in 50 μL of MEGM medium (Lonza). Cells were allowed to attach for one hour before compound was transferred to each well as a DMSO solution using a 100 nL pintool head affixed to a PerkinElmer FX instrument. After 72-hour incubation, 30 μL of a Cell Titer Glo solution (diluted 1:6 in water, Promega) was dispensed into each well and luminance values were recorded using an Envision plate reader. […] All other miniaturized, selective viability experiments were performed as above using the indicated growth medium.
# More specifically, in the high throughput screening assay above, each cell line was plated at 1,000 cells per well in 384-well plates, treated for 72 hours with 2 μM of test compound, and the viability of each line was determined in parallel by Cell Titer Glo (Promega) luminance measurements.
compound,measurement,value
"CC1=C(CO)C(=O)O[C@@H]([C@@H](C)[C@H]2CC[C@H]3[C@@H]4C[C@H]5O[C@]56[C@@H](O)C=CC(=O)[C@]6(C)[C@H]4CC[C@]23C)C1 [WIF-A, Withaferin A, reference compound]","cytotoxic index, FOXC2-HMLER relative to control cells",~10 fold
